Measured values as given in patent publication US12226414B2, “1-isopropyl-3-methyl-8-(pyridin-3-yl)-1,3-dihydro-2H-imidazo[4,5-c] cinnolin-2-one as selective modulators of ataxia telangiectasia mutated (ATM) kinase and uses thereof” (SUZHOU ZANRONG PHARMA LIMITED, priority 2018, dated 2025).

Amino acid sequences for entries named in this document (tags omitted). A change or cut given only in a name is not applied to a line headed by its entry.
UniProt Q06278: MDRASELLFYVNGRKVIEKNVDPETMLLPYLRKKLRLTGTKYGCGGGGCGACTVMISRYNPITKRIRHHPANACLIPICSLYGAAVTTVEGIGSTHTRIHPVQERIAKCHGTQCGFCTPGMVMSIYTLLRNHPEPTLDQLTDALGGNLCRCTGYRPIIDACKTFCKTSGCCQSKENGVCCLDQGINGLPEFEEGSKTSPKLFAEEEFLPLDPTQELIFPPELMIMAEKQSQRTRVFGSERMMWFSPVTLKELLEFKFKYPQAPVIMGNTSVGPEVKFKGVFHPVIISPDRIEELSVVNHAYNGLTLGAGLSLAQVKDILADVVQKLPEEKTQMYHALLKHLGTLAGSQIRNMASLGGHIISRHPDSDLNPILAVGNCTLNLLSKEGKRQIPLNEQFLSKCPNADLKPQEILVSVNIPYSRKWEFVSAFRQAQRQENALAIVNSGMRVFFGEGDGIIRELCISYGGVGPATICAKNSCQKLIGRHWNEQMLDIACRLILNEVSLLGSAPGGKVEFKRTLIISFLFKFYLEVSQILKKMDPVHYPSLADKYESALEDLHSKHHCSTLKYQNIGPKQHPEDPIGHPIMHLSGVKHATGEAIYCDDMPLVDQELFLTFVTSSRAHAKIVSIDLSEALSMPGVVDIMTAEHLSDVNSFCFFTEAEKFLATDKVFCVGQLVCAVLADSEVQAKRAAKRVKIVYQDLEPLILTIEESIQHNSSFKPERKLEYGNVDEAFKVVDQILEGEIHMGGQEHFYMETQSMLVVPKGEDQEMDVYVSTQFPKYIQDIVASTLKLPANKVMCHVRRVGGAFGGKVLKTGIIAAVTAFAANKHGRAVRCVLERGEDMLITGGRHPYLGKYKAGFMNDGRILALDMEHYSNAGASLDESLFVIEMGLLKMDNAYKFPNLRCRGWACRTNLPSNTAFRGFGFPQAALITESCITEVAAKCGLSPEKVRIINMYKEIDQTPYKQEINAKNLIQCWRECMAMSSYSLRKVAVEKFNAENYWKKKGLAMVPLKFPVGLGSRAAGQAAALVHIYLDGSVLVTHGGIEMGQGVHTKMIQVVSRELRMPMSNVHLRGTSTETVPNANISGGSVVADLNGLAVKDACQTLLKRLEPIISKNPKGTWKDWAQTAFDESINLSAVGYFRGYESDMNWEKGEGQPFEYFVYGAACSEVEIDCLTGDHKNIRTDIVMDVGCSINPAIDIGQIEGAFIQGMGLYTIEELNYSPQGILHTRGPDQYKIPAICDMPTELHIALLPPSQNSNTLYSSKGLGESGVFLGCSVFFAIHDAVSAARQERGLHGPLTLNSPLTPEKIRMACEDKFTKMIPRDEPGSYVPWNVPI
UniProt P08183, whole entry: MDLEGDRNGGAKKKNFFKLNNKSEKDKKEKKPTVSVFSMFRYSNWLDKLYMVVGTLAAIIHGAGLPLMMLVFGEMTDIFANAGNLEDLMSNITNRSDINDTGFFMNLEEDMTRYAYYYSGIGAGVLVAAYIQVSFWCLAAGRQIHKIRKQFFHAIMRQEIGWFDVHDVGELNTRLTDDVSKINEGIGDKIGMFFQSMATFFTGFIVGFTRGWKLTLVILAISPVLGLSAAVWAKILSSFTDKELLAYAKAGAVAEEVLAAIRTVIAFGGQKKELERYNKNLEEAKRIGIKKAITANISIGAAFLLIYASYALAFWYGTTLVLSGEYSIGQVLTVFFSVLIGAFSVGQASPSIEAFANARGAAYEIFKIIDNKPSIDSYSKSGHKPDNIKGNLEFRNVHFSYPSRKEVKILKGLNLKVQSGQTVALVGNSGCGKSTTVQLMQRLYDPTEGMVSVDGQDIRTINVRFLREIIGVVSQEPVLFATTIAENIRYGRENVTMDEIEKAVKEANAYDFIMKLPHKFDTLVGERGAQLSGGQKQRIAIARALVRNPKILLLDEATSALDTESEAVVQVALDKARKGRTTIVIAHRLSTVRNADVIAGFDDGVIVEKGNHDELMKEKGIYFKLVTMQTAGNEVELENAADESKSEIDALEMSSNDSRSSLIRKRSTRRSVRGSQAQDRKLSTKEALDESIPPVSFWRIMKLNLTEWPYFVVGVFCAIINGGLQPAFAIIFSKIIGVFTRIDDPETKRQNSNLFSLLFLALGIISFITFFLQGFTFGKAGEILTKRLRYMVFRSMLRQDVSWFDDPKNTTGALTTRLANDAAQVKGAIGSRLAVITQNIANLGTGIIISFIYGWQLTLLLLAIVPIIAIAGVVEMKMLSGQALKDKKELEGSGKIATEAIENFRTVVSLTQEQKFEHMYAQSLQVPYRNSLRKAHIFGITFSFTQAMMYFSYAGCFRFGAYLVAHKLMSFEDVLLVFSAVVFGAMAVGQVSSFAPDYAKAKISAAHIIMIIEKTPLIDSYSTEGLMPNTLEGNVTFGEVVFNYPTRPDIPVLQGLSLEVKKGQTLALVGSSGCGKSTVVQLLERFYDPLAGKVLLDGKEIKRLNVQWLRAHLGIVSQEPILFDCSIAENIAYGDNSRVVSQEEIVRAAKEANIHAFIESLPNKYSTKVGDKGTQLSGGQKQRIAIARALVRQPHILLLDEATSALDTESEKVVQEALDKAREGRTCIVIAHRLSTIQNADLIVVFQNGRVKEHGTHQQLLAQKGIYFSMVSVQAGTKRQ

Assays:
aldehyde oxidase (AO) = aldehyde oxidase (AO) (Homo sapiens (Human), UniProt Q06278); experiment: Aldehyde oxidase assay in human liver cytosol
P-glycoprotein (Pgp) = P-glycoprotein (Pgp) (Homo sapiens (Human), UniProt P08183); experiment: MDCK-MDR1 Pgp assessment

Compound: CN(C)CCCOc1ccc(-c2ccc3ncc4c(c3c2)n(C2CCOCC2)c(=O)n4C)cn1 [Ref. Comp. 2, AZD0156]
- AO substrate (in words) (aldehyde oxidase (AO)): strong AO substrates
- Pgp substrate (in words) (P-glycoprotein (Pgp)): a Pgp substrate
